Reference: patent US10106501B2, “Nuclear receptor modulators” (AbbVie Inc., priority 2015, dated 2018)

Protein sequences, listed by entry. Tags and fused reporters are not part of them. Residues count along the entry.
UniProt P51449, 269-508 limits assumed, stated change not applied: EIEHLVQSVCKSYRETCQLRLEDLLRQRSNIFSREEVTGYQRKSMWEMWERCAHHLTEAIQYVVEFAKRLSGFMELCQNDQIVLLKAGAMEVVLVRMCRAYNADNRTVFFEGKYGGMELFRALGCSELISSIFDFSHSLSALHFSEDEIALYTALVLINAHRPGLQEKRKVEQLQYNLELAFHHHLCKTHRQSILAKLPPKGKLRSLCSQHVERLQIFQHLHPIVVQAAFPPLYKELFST

Biological target: chimeric human RORγ-Gal4 receptor (Homo sapiens, UniProt P51449)
Assay: transient transactivation assay (RORγ-Gal4 luciferase reporter)
Assay type: cell-based
Settings: Cos-7 cells transfected with RORγ-Gal4 and 5Gal4 pGL3 TK Luc reporter; overnight incubation; T0901317 at 10^-5 M as reference

IC50 [nM] | SMILES
< 100 | Cc1cc(C#N)cc2c1cc(Cc1c(Cl)ccc(C(=O)N3CCC(CC(C)O)CC3)c1Cl)n2C (stereo not shown) [AA-37]
100 to 500 | Cc1cc(C#N)cc2c1cc(Cc1c(Cl)ccc(C(=O)N3CC[C@@H](O)C3)c1Cl)n2C [AA-39]
< 100 | Cc1cc(C(F)(F)F)cc2c1cc(C(=O)c1c(Cl)ccc(C(=O)N3CCN(CC(=O)O)CC3)c1Cl)n2C [AQ-1]
< 100 | Cc1cc(C(F)(F)F)cc2c1cc(Cc1c(Cl)ccc(C(=O)N3CCN(CC(=O)O)CC3)c1Cl)n2C [Example AW, 2-(4-(2,4-dichloro-3-((1,4-dimethyl-6-(trifluoromethyl)-1H-indol-2-yl)methyl)benzoyl)piperazin-1-yl)acetic acid]

The next lines start with the molecule.

SMILES | IC50 [nM]
Cc1cc(C#N)cc2c1cc(Cc1c(Cl)ccc(C(=O)N3CCC(C(C)(C)O)CC3)c1Cl)n2C [AA-2] | < 100
Cc1cc(C#N)cc2c1cc(Cc1c(Cl)ccc(C(=O)N3CCC(CO)CC3)c1Cl)n2C [AA-7] | < 100
Cc1cc(C#N)cc2c1cc(Cc1c(Cl)ccc(C(=O)N3CCC(O)C3)c1Cl)n2C (stereo not shown) [AA-18] | < 100
COCCC1CCN(C(=O)c2ccc(Cl)c(Cc3cc4c(C)cc(C#N)cc4n3C)c2Cl)CC1 [AA-27] | < 100
Cc1cc(C(F)(F)F)nc2c1cc(Cc1c(Cl)ccc(C(=O)N3CCC(C(=O)O)CC3)c1Cl)n2C [Example FS, 1-(2,4-dichloro-3-((1,4-dimethyl-6-(trifluoromethyl)-1H-pyrrolo[2,3-b]pyridin-2-yl)methyl)benzoyl)piperidine-4-carboxylic acid] | < 100
Cc1cc(C(F)(F)F)nc2c1cc(C(=O)c1c(Cl)ccc(C(=O)N3CCC(CC(=O)O)CC3)c1Cl)n2C [Example FU, 2-(1-(2,4-dichloro-3-(1,4-dimethyl-6-(trifluoromethyl)-1H-pyrrolo[2,3-b]pyridine-2-carbonyl)benzoyl)piperidin-4-yl)acetic acid] | < 100
